Target: mammalian target of rapamycin (mTOR) (Homo sapiens (Human), UniProt P42345)
Conditions: read-out: mTOR IC50

`COc1ccc(Nc2ncc(-c3cn[nH]c3)cc2-c2nc(C)nc(N)n2)cn1` [Example 250, 4-(2-(6-Methoxypyridin-3-Ylamino)-5-(1H-Pyrazol-4-yl)Pyridin-3-yl)-6-Methyl-1,3,5-Triazin-2-Amine] gave an IC50 of over 10000 nM.

`COc1ccc(Nc2ncc(-c3ccc(C)nc3)cc2-c2nc(C)nc(N)n2)cn1` [Example 251, 5-(4-Amino-6-Methyl-1,3,5-Triazin-2-yl)-N-(6-Methoxypyridin-3-yl)-6′-Methyl-3,3′-Bipyridin-6-Amine] gave an IC50 of over 10000 nM.

`COc1ccc(Nc2ncc(-c3ccnnc3)cc2-c2nc(C)nc(N)n2)cn1` [Example 252, 4-(2-(6-Methoxypyridin-3-Ylamino)-5-(Pyridazin-4-yl)Pyridin-3-yl)-6-Methyl-1,3,5-Triazin-2-Amine] showed an IC50 of over 10000 nM.

`COc1ccc(Nc2ncc(-c3cncc(F)c3)cc2-c2nc(C)nc(N)n2)cn1` [Example 253, 5-(4-Amino-6-Methyl-1,3,5-Triazin-2-yl)-5′-Fluoro-N-(6-Methoxypyridin-3-yl)-3,3′-Bipyridin-6-Amine] was tested, and the IC50 was over 10000 nM.

Work on `COc1ccc(Nc2nc(-c3cccnc3)ccc2-c2nc(C)nc(N)n2)cn1` [Example 254, 5-(4-Amino-6-Methyl-1,3,5-Triazin-2-yl)-N-(6-Methoxypyridin-3-yl)-2,3′-Bipyridin-6-Amine] yielded an IC50 of over 10000 nM.

In the case of `COc1ncc(Nc2nc(-c3cccnc3)ccc2-c2nc(C)nc(N)n2)cc1F` [Example 255, 5-(4-Amino-6-Methyl-1,3,5-Triazin-2-yl)-N-(5-Fluoro-6-Methoxypyridin-3-yl)-2,3′-Bipyridin-6-Amine], the IC50 is reported as over 10000 nM.

For `COc1ccc(Nc2ncc(C3=CCOCC3)cc2-c2nc(C)nc(N)n2)cn1` [Example 256, 4-(5-(3,6-Dihydro-2H-Pyran-4-yl)-2-(6-Methoxypyridin-3-Ylamino)Pyridin-3-yl)-6-Methyl-1,3,5-Triazin-2-Amine], the IC50 was over 10000 nM.

In the case of `Cc1nc(N)nc(-c2cc(Cl)cnc2Nc2cncc(F)c2)n1` [Example 257, 4-(5-Chloro-2-(5-Fluoropyridin-3-Ylamino)Pyridin-3-yl)-6-Methyl-1,3,5-Triazin-2-Amine], the IC50 is reported as over 10000 nM.

With `Cc1nc(N)nc(-c2cc(-c3cnn(C)c3)cnc2Nc2cncc(F)c2)n1` [Example 258, 4-(2-(5-Fluoropyridin-3-Ylamino)-5-(1-Methyl-1H-Pyrazol-4-yl)Pyridin-3-yl)-6-Methyl-1,3,5-Triazin-2-Amine] the IC50 was over 10000 nM.

`COCCOc1ccc(-c2nc(C)nc(N)n2)c(Nc2cnc(OC)c(F)c2)n1` [Example 259, 4-(2-(5-Fluoro-6-Methoxypyridin-3-Ylamino)-6-(2-Methoxyethoxy)Pyridin-3-yl)-6-Methyl-1,3,5-Triazin-2-Amine] was tested, and the IC50 was over 10000 nM.

`Cc1nc(N)nc(-c2cc(CN3CCN(S(C)(=O)=O)CC3)cnc2Nc2ccc3[nH]cnc3c2)n1` [Example 260, N-(3-(4-Amino-6-Methyl-1,3,5-Triazin-2-yl)-5-((4-(Methylsulfonyl)Piperazin-1-yl)Methyl)Pyridin-2-yl)-1H-Benzo[D]Imidazol-5-Amine] gave an IC50 of 501 nM.

`Cc1nc(N)nc(-c2cc(CN3CCNCC3)cnc2Nc2ccc3[nH]cnc3c2)n1` [Example 261, N-(3-(4-Amino-6-Methyl-1,3,5-Triazin-2-yl)-5-(Piperazin-1-Ylmethyl)Pyridin-2-yl)-1H-Benzo[D]Imidazol-5-Amine] was tested, and the IC50 was 2210 nM.

`COc1ccc(Nc2ncc(OC(F)F)cc2-c2nc(C)nc(N)n2)cn1` [Example 262, 4-(5-(Difluoromethoxy)-2-(6-Methoxypyridin-3-Ylamino)Pyridin-3-yl)-6-Methyl-1,3,5-Triazin-2-Amine] showed an IC50 of over 10000 nM.

Compound `Cc1nc(N)nc(-c2cccnc2Nc2cc[nH]c(=O)c2)n1` [Example 263, 4-(3-(4-Amino-6-Methyl-1,3,5-Triazin-2-yl)Pyridin-2-Ylamino)Pyridin-2(1H)-One] has an IC50 of over 10000 nM.

`CC(=O)Nc1ccc(Nc2ncc(Cl)cc2-c2nc(C)nc(N)n2)cc1F` [Example 266, N-(4-(3-(4-Amino-6-Methyl-1,3,5-Triazin-2-yl)-5-Chloropyridin-2-Ylamino)-2-Fluorophenyl)Acetamide] showed an IC50 of 463 nM.

With `CC(=O)Nc1ccc(Nc2ncc(CN3CCN(S(C)(=O)=O)CC3)cc2-c2nc(C)nc(N)n2)cc1F` [Example 267, N-(4-(3-(4-Amino-6-Methyl-1,3,5-Triazin-2-yl)-5-((4-(Methylsulfonyl)Piperazin-1-yl)Methyl)Pyridin-2-Ylamino)-2-Fluorophenyl)Acetamide] the IC50 was 623 nM.

Compound `CC(=O)Nc1ccc(Nc2ncc(CN3CCN(S(C)(=O)=O)CC3)cc2-c2nc(C)nc(N)n2)cc1` [Example 268, N-(4-(3-(4-Amino-6-Methyl-1,3,5-Triazin-2-yl)-5-((4-(Methylsulfonyl)Piperazin-1-yl)Methyl)Pyridin-2-Ylamino)Phenyl)Acetamide] has an IC50 of 161 nM.

In the case of `COc1ncc(Nc2ncc(C(C)(C)O)cc2-c2nc(C)nc(N)n2)cc1F` [Example 273, 2-(5-(4-Amino-6-Methyl-1,3,5-Triazin-2-yl)-6-(5-Fluoro-6-Methoxypyridin-3-Ylamino)Pyridin-3-yl)Propan-2-ol], the IC50 is reported as over 10000 nM.

`COc1ncc(Nc2ncc([C@H](C)N3CCOCC3)cc2-c2cc(N)nc(C)n2)cc1F` [Example 275, 6-(2-((5-Fluoro-6-Methoxy-3-Pyridinyl)Amino)-5-((1S)-1-(4-Morpholinyl)Ethyl)-3-Pyridinyl)-2-Methyl-4-Pyrimidinamine] gave an IC50 of over 10000 nM.

`COc1ncc(Nc2ncc([C@@H](C)N3CCOCC3)cc2-c2cc(N)nc(C)n2)cc1F` [Example 276, 6-(2-((5-Fluoro-6-Methoxy-3-Pyridinyl)Amino)-5-((1R)-1-(4-Morpholinyl)Ethyl)-3-Pyridinyl)-2-Methyl-4-Pyrimidinamine] was tested, and the IC50 was over 10000 nM.

`COc1ccc(Nc2ncc(C(C)(C)N)cc2-c2nc(C)nc(N)n2)cn1` [Example 277, 4-(5-(2-Aminopropan-2-yl)-2-(6-Methoxypyridin-3-Ylamino)Pyridin-3-yl)-6-Methyl-1,3,5-Triazin-2-Amine] showed an IC50 of 517 nM.

`COc1ncc(Nc2ncc(C(C)(C)N)cc2-c2nc(C)nc(N)n2)cc1F` [Example 278, 4-(5-(2-Aminopropan-2-yl)-2-(5-Fluoro-6-Methoxypyridin-3-Ylamino)Pyridin-3-yl)-6-Methyl-1,3,5-Triazin-2-Amine] was tested, and the IC50 was over 10000 nM.

Compound `COc1ccc(Nc2ncc(C(C)(C)N3CCN(S(C)(=O)=O)CC3)cc2-c2nc(C)nc(N)n2)cn1` [Example 279, 4-(2-(6-Methoxypyridin-3-Ylamino)-5-(2-(4-(Methylsulfonyl)Piperazin-1-yl)Propan-2-yl)Pyridin-3-yl)-6-Methyl-1,3,5-Triazin-2-Amine] has an IC50 of 1780 nM.

`COc1ncc(Nc2ncc(C(C)(C)N3CCOCC3)cc2-c2nc(C)nc(N)n2)cc1F` [Example 281, 4-(2-(5-Fluoro-6-Methoxypyridin-3-Ylamino)-5-(2-Morpholinopropan-2-yl)Pyridin-3-yl)-6-Methyl-1,3,5-Triazin-2-Amine] gave an IC50 of over 10000 nM.

Work on `COc1ccc(Nc2ncc(C3(N4CCN(S(C)(=O)=O)CC4)CC3)cc2-c2nc(C)nc(N)n2)cn1` [Example 282, 4-(2-(6-Methoxypyridin-3-Ylamino)-5-(1-(4-(Methylsulfonyl)Piperazin-1-yl)Cyclopropyl)Pyridin-3-yl)-6-Methyl-1,3,5-Triazin-2-Amine] yielded an IC50 of over 10000 nM.

With `COc1ncc(Nc2ncc(C(C)N3CCN(S(C)(=O)=O)CC3)nc2-c2cc(N)nc(C)n2)cc1F` (stereo not shown) [Example 283, 6-(3-(5-Fluoro-6-Methoxypyridin-3-Ylamino)-6-(1-(4-(Methylsulfonyl)Piperazin-1-yl)Ethyl)Pyrazin-2-yl)-2-Methylpyrimidin-4-Amine] the IC50 was over 10000 nM.

`COc1ncc(Nc2ncc(C(C)(C)O)nc2-c2cc(N)nc(C)n2)cc1F` [Example 284, 2-(6-(6-Amino-2-Methylpyrimidin-4-yl)-5-(5-Fluoro-6-Methoxypyridin-3-Ylamino)Pyrazin-2-yl)Propan-2-ol] gave an IC50 of over 10000 nM.

In the case of `COc1ccc(Nc2ncc(C(C)=O)nc2-c2cc(N)nc(C)n2)cn1` [Example 285, 1-(6-(6-Amino-2-Methylpyrimidin-4-yl)-5-(6-Methoxypyridin-3-Ylamino)Pyrazin-2-yl)Ethanone], the IC50 is reported as over 10000 nM.

`COc1ccc(Nc2ncc(C(C)N3CCN(S(C)(=O)=O)CC3)nc2-c2cc(N)nc(C)n2)cn1` (stereo not shown) [Example 286, 6-(3-(6-Methoxypyridin-3-Ylamino)-6-(1-(4-(Methylsulfonyl)Piperazin-1-yl)Ethyl)Pyrazin-2-yl)-2-Methylpyrimidin-4-Amine] was tested, and the IC50 was 1950 nM.

Work on `Cc1nc(N)nc(-c2cc([C@@H](C)N3CCN(S(C)(=O)=O)CC3)cnc2Nc2cc(F)c3cccnc3c2)n1` [Example 287, (R)—N-(3-(4-Amino-6-Methyl-1,3,5-Triazin-2-yl)-5-(1-(4-(Methylsulfonyl)Piperazin-1-yl)Ethyl)Pyridin-2-yl)-5-Fluoroquinolin-7-Amine] yielded an IC50 of over 10000 nM.

Compound `Cc1nc(N)nc(-c2cc(C(C)N3CCOCC3)cnc2Nc2ccc3scnc3c2)n1` (stereo not shown) [Example 288, N-(3-(4-Amino-6-Methyl-1,3,5-Triazin-2-yl)-5-(1-Morpholinoethyl)Pyridin-2-yl)Benzo[D]Thiazol-5-Amine] has an IC50 of 239 nM.

In the case of `Cc1nc(N)nc(-c2cc(C(C)N3CCN(C(=O)N(C)C)CC3)cnc2Nc2ccc3scnc3c2)n1` (stereo not shown) [Example 289, 4-(1-(5-(4-Amino-6-Methyl-1,3,5-Triazin-2-yl)-6-(Benzo[D]Thiazol-5-Ylamino)Pyridin-3-yl)Ethyl)-N,N-Dimethylpiperazine-1-Carboxamide], the IC50 is reported as 326 nM.

`Cc1nc(N)nc(-c2cc(C(C)N3CCN(S(C)(=O)=O)CC3)cnc2Nc2ccc3scnc3c2)n1` (stereo not shown) [Example 290, N-(3-(4-Amino-6-Methyl-1,3,5-Triazin-2-yl)-5-(1-(4-(Methylsulfonyl)Piperazin-1-yl)Ethyl)Pyridin-2-yl)Benzo[D]Thiazol-5-Amine] showed an IC50 of 202 nM.

In the case of `Cc1nc(N)nc(-c2cc([C@@H](C)N3CCN(S(C)(=O)=O)C[C@@H]3C)cnc2Nc2ccc3scnc3c2)n1` [Example 293, N-(3-(4-Amino-6-Methyl-1,3,5-Triazin-2-yl)-5-((R)-1-((S)-2-Methyl-4-(Methylsulfonyl)Piperazin-1-yl)Ethyl)Pyridin-2-yl)Benzo[D]Thiazol-5-Amine], the IC50 is reported as 252 nM.

From US8772480B2, “Inhibitors of PI3 kinase and/or mTOR” (priority 2009, dated 2014)
